Reference: patent EP4834882A1, “ALDOSTERONE SYNTHETASE INHIBITOR, AND PREPARATION METHOD THEREFOR AND USE THEREOF” (dated 2026)
One block for each compound: values may come before it.

By UniProt entry, the sequences of proteins in these tests, tags left out. Residues count along the entry.
UniProt P15538, 25-503 limits assumed: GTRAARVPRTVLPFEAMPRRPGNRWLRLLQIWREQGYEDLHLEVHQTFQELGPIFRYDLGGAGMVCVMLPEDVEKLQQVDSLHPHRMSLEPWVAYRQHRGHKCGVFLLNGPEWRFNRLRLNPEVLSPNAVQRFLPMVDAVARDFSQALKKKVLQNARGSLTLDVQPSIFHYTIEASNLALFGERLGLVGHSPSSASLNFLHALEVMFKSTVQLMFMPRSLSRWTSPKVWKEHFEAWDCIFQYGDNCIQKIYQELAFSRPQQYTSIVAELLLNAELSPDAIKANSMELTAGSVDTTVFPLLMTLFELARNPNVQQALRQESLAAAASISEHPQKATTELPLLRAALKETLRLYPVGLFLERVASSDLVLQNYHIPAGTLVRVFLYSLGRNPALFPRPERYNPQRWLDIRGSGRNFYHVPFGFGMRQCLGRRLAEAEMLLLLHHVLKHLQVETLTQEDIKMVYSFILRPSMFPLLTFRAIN
UniProt P19099, 25-503 limits assumed: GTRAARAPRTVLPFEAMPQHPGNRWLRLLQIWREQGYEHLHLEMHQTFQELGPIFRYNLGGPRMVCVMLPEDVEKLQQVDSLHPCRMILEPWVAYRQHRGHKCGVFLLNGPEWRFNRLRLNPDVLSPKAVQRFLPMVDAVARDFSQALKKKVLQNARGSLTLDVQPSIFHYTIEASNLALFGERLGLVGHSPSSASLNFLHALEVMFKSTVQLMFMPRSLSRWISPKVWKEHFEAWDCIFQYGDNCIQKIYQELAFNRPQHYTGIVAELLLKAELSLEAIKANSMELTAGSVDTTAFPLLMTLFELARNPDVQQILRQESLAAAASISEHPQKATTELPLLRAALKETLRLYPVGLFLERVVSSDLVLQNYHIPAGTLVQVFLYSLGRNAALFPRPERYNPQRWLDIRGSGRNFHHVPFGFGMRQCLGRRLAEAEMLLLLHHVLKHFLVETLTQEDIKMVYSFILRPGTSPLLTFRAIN

Assays:
human CYP11B1 = human CYP11B1 (Homo sapiens, UniProt P15538); experiment: H295R steroidogenesis assay, selectivity CYP11B1 versus CYP11B2; conditions: Selectivity = CYP11B1 Ki (nM)/CYP11B2 Ki (nM); NCI-H295R cells
Experimental: (§1) The H295R steroidogenesis assay system was used in the present invention for testing the enzyme activities of human CYP11B1, human CYP11B2, etc. The in vitro H295R steroidogenesis assay system utilizes a human adrenocortical carcinoma cell line (NCI-H295R cells) as a Tier 2 "in vitro assay that provides mechanistic data" for screening and prioritization purposes. The development and standardization of this method were performed in a multi-step process for screening chemical effects on steroidogenesis, and the H295R assay method has been optimized and validated according to the OECD Test Guideline (Test Guideline No. 456 H295R Steroidogenesis Assay).
(§2) NCI-H295R cells were purchased from ATCC. After initiating culture from the original ATCC batch, NCI-H295R cells were cultured for five passages (i.e., undergo four rounds of cell divisions), and then the cells at passage five were cryopreserved and stored in liquid nitrogen.
(§3) H295R cells were cultured in a cell culture incubator at 37°C and 5% CO2, and the medium was replaced 2-3 times per week. Cells were passaged when they reached approximately 85-90% confluency. The medium was aspirated, and the cells were washed three times with DPBS (Ca^2+ and Mg^2+ -free), and then trypsin was added to digest for 1-3 min. The digestion was terminated by adding 3 mL of culture medium. The cells were then dislodged by pipetting, and any remaining cells were rinsed off with 1 mL of medium. The cell suspension was pooled and transferred to a 15 mL centrifuge tube. After centrifuging at room temperature and 800 rpm for 5 min, the supernatant was discarded, the pellet was resuspended in 3 mL of medium, and the cell suspension was counted. The edge wells of a 96-well plate are left empty, and the remaining wells are seeded with 50,000 cells per well in 100 µL of 10% FBS DMEM/F12 (1:1) basal medium..After overnight recovery, the medium was replaced with basal medium containing 10 µM Forskolin (150 µL per well), and the cells were incubated for 48 h. After 48 h, the medium was replaced with basal medium containing 10 µM deoxycorticosterone. The compound was dissolved in DMSO to prepare a 100 mM stock solution. Starting from 100 mM, the compounds are subjected to 3-fold serial dilutions in DMSO, resulting in 10 concentration points. These 10 concentration points was then diluted 10-fold with blank DMEM:F12 (1:1) medium, resulting in a starting concentration of 10 mM. An aliquot of 1.5 µL of each compound concentration was added to the cells, achieving a final DMSO concentration of 0.1% and a starting compound concentration of 100 µM. After incubation for 48 h, 40 µL of cell supernatant was collected and analyzed for the levels of aldosterone and cortisol by LC-MS.
(§4) The inhibition rate was calculated using the following formula: [formula]
(§5) Using the logarithm of the compound concentration as the x-axis and the inhibition rate as the y-axis. Nonlinear regression curve fitting was performed using Graphpad 9.0 to calculate the IC50 value (Y=Bottom+(Top - Bottom)/(1+ 10^((LogIC50 - X)×HillSlope))), Ki = IC50/(1 + [S]/Km), and the test results are shown in Table 1. Unless otherwise specified, competitive inhibition is assumed for all proteases. Selectivity = CYP11B1 Ki (nM)/CYP11B2 Ki (nM); wherein, A represents a selectivity value between 0 and 50, B represents a selectivity value between 51 and 100, C represents a selectivity value between 101 and 150, and D represents a selectivity value above 151. Table 1: Inhibitory effect of compounds on CYP11B2

human CYP11B2 = human CYP11B2 (Homo sapiens, UniProt P19099); experiment: H295R steroidogenesis assay, inhibition of aldosterone synthase; conditions: read-out: CYP11B2 Ki; NCI-H295R cells, 10 µM deoxycorticosterone, 48 h, aldosterone by LC-MS; Ki = IC50/(1 + [S]/Km)
Experimental: as §1, §2, §3, §4, §5

[1] = In vitro hepatic microsome stability; conditions: Human hepatic microsomes; for T1/2: with NADPH, 37°C; for ER: slow metabolism ER<0.3, moderate 0.3<ER<0.7, fast ER>0.7
Experimental: The compounds of Examples 1-49 (test substances) and the positive control drug were dissolved in DMSO to prepare stock solutions (10 mM). The stock solutions were diluted with acetonitrilewater (1:1, v/v) to obtain 100 µM solutions, which was further diluted with 0.1 M potassium phosphate buffer to obtain working solutions (30 µM).
NADPH powder was weighed and dissolved in 0.1 M potassium phosphate buffer to obtain a 5 mg/mL solution.
Hepatic microsomes from each species (20 mg/mL) were diluted with 0.1 M potassium phosphate buffer to parepare 0.8 mg/mL hepatic microsome working solutions.
25 µL of the test substance or positive control drug working solution was added to 475 µL of the hepatic microsome working solution and mixed thoroughly. The mixture was aliquoted into a 96-well plate at 30 µL/well (n=2). For the 0 min samples, 150 µL of internal standard acetonitrile solution was added to precipitate proteins, followed by the addition of 15 µL of NADPH solution, and these samples were then stored in a refrigerator at 4°C. Other samples were pre-incubated at 37°C for 10 min. For the 20 min and 60 min samples, 15 µL of NADPH solution was added to initiate the reaction. For samples without NADPH, 15 µL of potassium phosphate buffer was added instead. All samples were then incubated at 37°C. Upon reaching the designated reaction time, 150 µL of internal standard acetonitrile solution was added to precipitate proteins.
The precipitated samples were vortexed and then centrifuged at 4000 rpm for 5 min. 100 µL of purified water was added to the supernatant , followed by LC-MS analysis.
The peak area ratio of the analyte to the internal standard was used to calculate the relative percentage of the compound remaining after incubation (remaining rate %) and for exponential function fitting. The calculation formula was as follows: [formula] [formula] [formula]

[2] = Pharmacokinetic study in cynomolgus monkeys; conditions: Cynomolgus monkey, ig
Experimental: • Cynomolgus monkeys: male, 180-250g, purchased from Guangxi Grandforest Scientific Primate Company, Ltd. • Reagents: DMSO (dimethyl sulfoxide), PEG400, saline, heparin, acetonitrile, formic acid, propranolol (internal standard) are all commercially available. • Instrument: AB SCIEX 7500.
The compound was weighed and dissolved in a DMSO-PEG-400-saline (5:60:35, v/v/v) system. Following intragastric administration to cynomolgus monkeys, 200 µL of venous blood was collected into EDTA-K2 anticoagulant tubes at 30 min, 60 min, 90 min, 2 h, 3 h, 5 h, 8 h, and 24 h. The blood samples were centrifuged at 12,000 rpm for 2 min, and the plasma was collected and stored at -80°C for subsequent analysis. An appropriate amount of the test compound was accurately weighed and dissolved in DMSO to a concentration of 2 mg/mL as a stock solution. Appropriate volumes of the compound stock solution were accurately pipetted and diluted with acetonitrile to prepare a series of standard solutions. A series of standard solutions were prepared at concentrations equivalent to plasma concentrations of 0.3, 1, 3, 10, 30, 100, 300, 1000, and 3000 ng/mL by accurately pipetting 10 µL of each standard solution and adding it to 90 µL of blank plasma, followed by vortexing to mix. Quality control samples were prepared at plasma concentrations of 2.4, 120, and 2400 ng/mL. Duplicate samples were analyzed for each concentration , and the standard curve was established. Subsequently, 30 µL aliquot of plasma was taken, and 150 µL of acetonitrile solution containing the internal standard propranolol (50 ng/mL) was added. After vortexing to mix, 100 µL of purified water was added, and the mixture was vortexed again to mix. It was then centrifuged at 4000 rpm for 5 minutes, and the supernatant was collected for LC-MS analysis. The LC-MS detection conditions were as follows: Chromatographic column: YMC Triart C18, 50×3.0mm, 2.1µm. Mobile phase: gradient elution with a mixture of water (containing 0.1% formic acid) and acetonitrile as described in the table below:
After the plasma concentration was determined by LC-MS, the pharmacokinetic parameters were calculated using WinNonlin 6.1 software with a non-compartmental model, and the results are shown in Table 4. Table 4 Pharmacokinetic results of the compounds of the present invention in Cynomolgus monkey

[3] = Rat pharmacokinetic study; conditions: SD rats
Text: • SD rats: male, 180-250g, purchased from Beijing Vital River Laboratory Animal Technology Co., Ltd. • Reagents: DMSO (dimethyl sulfoxide), PEG-400 (polyethylene glycol 400), saline, heparin, acetonitrile, formic acid, and propranolol (internal standard) are all commercially available. Instrument: AB SCIEX QTRAP 5500+.
The compounds of Examples 1-49 of the present invention were weighed and dissolved in a DMSO-PEG-400-saline (5:60:35, v/v/v) system. Following intravenous or intragastric administration to rats, venous blood samples (200 µL) were collected into EDTA-K2 anticoagulant tubes at the following time points: 15 min, 30 min, 1 h, 2 h, 5 h, 7h, and 24 h (with an additional 5-min time point for the i.v. group). The samples were centrifuged at 12,000 rpm for 2 minutes, and the obtained plasma was stored at -80°C until analysis. A certain amount of the test sample was accurately weighed and dissolved in DMSO to 2 mg/mL as a stock solution. An appropriate amount of the stock solution of each test compound was accurately pipetted and diluted with acetonitrile to prepare a series of standard solutions. 10 µL of each of the above series of standard solutions was accurately pipetted, to which was added 90 µL of blank plasma, and vortexed to prepare plasma samples with plasma concentrations equivalent to 1, 3, 5, 10, 30, 100, 300, 1000, 3000 ng/mL. Duplicate samples were analyzed for each concentration to establish a standard curve. 30 µL aliquot of each plasma sample was used (samples from the 5, 15, and 30 min i.v. time points were diluted 5-fold prior to analysis). Then, 150 µL of acetonitrile containing the internal standard propranolol (50 ng/mL) was added. After vortexing, 100 µL of purified water was added, and the mixture was vortexed again, followed by centrifugation at 4000 rpm for 5 minutes. The supernatant was collected and analyzed by LC-MS.
The LC-MS analysis was performed under the following conditions: Chromatographic column: YMC Triart C18, 50×3.0mm, 2.1µm. Mobile phase: gradient elution with a mixture of water (containing 0.1% formic acid) and acetonitrile as described in the table below:
After the plasma concentration was determined by LC-MS, the pharmacokinetic parameters were calculated using WinNonlin 6.1 software with a non-compartmental model. Table 2 Pharmacokinetic results of the compounds of the present invention in rats

Structure (SMILES): CCC(=O)N[C@@H]1CCCc2c(-c3ccc4ncccc4c3F)cncc21
- Selectivity (human CYP11B1): A (A represents a selectivity value between 0 and 50)
- Ki (human CYP11B2): < 50 nM

Structure (SMILES): [2H]c1ccc2cc(-c3cncc4c3CCC[C@H]4NC(=O)CC)ccc2n1
- Selectivity (human CYP11B1): A (A represents a selectivity value between 0 and 50)
- Ki (human CYP11B2): < 50 nM

Structure (SMILES): CCC(=O)N[C@@H]1CCCc2c(-c3ccc4cnn(C)c4c3)cncc21
- T1/2 [1]: 2097 min
- ER [1]: 0.04

Structure (SMILES): CCC(=O)N[C@@H]1CCCc2c(-c3ccc4onc(C)c4c3)cncc21
- Selectivity (human CYP11B1): A (A represents a selectivity value between 0 and 50)
- Ki (human CYP11B2): < 50 nM

Structure (SMILES): CCC(=O)N[C@@H]1CCCc2c(-c3ccc4cnccc4c3)cncc21
- Selectivity (human CYP11B1): B (B represents a selectivity value between 51 and 100)
- Ki (human CYP11B2): < 50 nM

Structure (SMILES): CCC(=O)N[C@@H]1CCCc2c(-c3ccc4nc(C#N)ccc4c3)cncc21
- AUClast ([2]; 0.05 mg/kg): 122 ng·h/mL
- Cmax ([2]; 0.05 mg/kg): 14.3 ng/mL
- T1/2 ([2]; 0.05 mg/kg): 8.55 h
- AUClast ([2]; 20 mg/kg): 68600 ng·h/mL
- Cmax ([2]; 20 mg/kg): 7800 ng/mL
- T1/2 ([2]; 20 mg/kg): 7.06 h
- AUClast ([3]; 1 mg/kg, i.v): 7910 ng·h/mL
- Cmax ([3]; 1 mg/kg, i.v): 2850 ng/mL
- T1/2 ([3]; 1 mg/kg, i.v): 2.05 h
- AUClast ([3]; 5 mg/kg, p.o): 53800 ng·h/mL
- Cmax ([3]; 5 mg/kg, p.o): 6280 ng/mL
- T1/2 ([3]; 5 mg/kg, p.o): 2.50 h
- Selectivity (human CYP11B1): A (A represents a selectivity value between 0 and 50)
- Ki (human CYP11B2): < 50 nM

Structure (SMILES): OC1CCCc2c(-c3ccc4ncccc4c3)cncc21 (centres unmarked)
- Selectivity (human CYP11B1): A (A represents a selectivity value between 0 and 50)
- Ki (human CYP11B2): < 50 nM

Further lines, with some results ahead:

- Ki (human CYP11B2): < 50 nM
Structure (SMILES): CCC(=O)N[C@@H]1CCCc2c(-c3ccc4cc(C#N)ccc4c3)cncc21
- Selectivity (human CYP11B1): A (A represents a selectivity value between 0 and 50)

- Ki (human CYP11B2): < 50 nM
Structure (SMILES): CCC(=O)N[C@@H]1CCCc2c(-c3ccc4nccc(C)c4c3)cncc21
- Selectivity (human CYP11B1): A (A represents a selectivity value between 0 and 50)

- AUClast ([2]; 0.05 mg/kg): 121 ng·h/mL
- Cmax ([2]; 0.05 mg/kg): 18.9 ng/mL
- T1/2 ([2]; 0.05 mg/kg): 5.52 h
- AUClast ([2]; 20 mg/kg): 46238 ng·h/mL
- Cmax ([2]; 20 mg/kg): 7157 ng/mL
- T1/2 ([2]; 20 mg/kg): 4.08 h
- AUClast ([3]; 1 mg/kg, i.v): 5050 ng·h/mL
- Cmax ([3]; 1 mg/kg, i.v): 1270 ng/mL
- T1/2 ([3]; 1 mg/kg, i.v): 3.92 h
- AUClast ([3]; 5 mg/kg, p.o): 28400 ng·h/mL
- Cmax ([3]; 5 mg/kg, p.o): 2980 ng/mL
- T1/2 ([3]; 5 mg/kg, p.o): 4.37 h
- T1/2 [1]: 690 min
- ER [1]: 0.11
Structure (SMILES): CCC(=O)N[C@@H]1CCCc2c(-c3ccc4c(c3)CCC(=O)N4C)cncc21

- Ki (human CYP11B2): < 50 nM
Structure (SMILES): CCC(=O)N[C@@H]1CCCc2c(-c3cc(F)c4ncccc4c3)cncc21
- Selectivity (human CYP11B1): A (A represents a selectivity value between 0 and 50)

- Ki (human CYP11B2): < 50 nM
Structure (SMILES): N#Cc1ccc2cc(-c3cncc4c3CCCC4O)ccc2n1 (racemic)
- Selectivity (human CYP11B1): A (A represents a selectivity value between 0 and 50)

- ER [1]: <0.04
- Ki (human CYP11B2): < 50 nM
Structure (SMILES): CCC(=O)N[C@@H]1CCCc2c(-c3ccc4ncccc4c3)cncc21
- Selectivity (human CYP11B1): B (B represents a selectivity value between 51 and 100)

- Ki (human CYP11B2): < 50 nM
Structure (SMILES): CCC(=O)N[C@@H]1CCCc2c(-c3ccc4ncc(F)cc4c3)cncc21
- Selectivity (human CYP11B1): A (A represents a selectivity value between 0 and 50)
